Assay outcomes as filed in PubChem.
The list is not random: actives were taken first. Their share in the collection is about 3.7%.
miR-21 FLuc = miR-21 reporter, rising signal; HeLa miR-21 FLuc reporter, luciferase, 48 h; Potency, µM (titrated, usually from 38.3 µM); 340,000 tested, under 10 active; AID 2288; active = well fitted rising curve with a large enough effect; inconclusive = small, poorly fitted or top-dose-only effect; inactive = no such curve, though single readings can be large or run the other way;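 also: miR-21 action dims this reporter so a rising signal means less miR-21 action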
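Luminescence from a firefly luciferase reporter carrying a miR-21 binding site downstream, stably expressed under a CMV promoter in HeLa cells that make miR-21 endogenously, reports miRNA modulation after 48 h compound exposure up to approximately 40uM final.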
Nrf2 inh = Nrf2 pathway inhibition; AID 504444; A549 ARE-Fluc reporter, luciferase luminescence, 18-24 h; Potency, µM (titrated, usually from 46 µM), most hits filed as inhibitors; 360,000 compounds, 2.1% hits; further: nearly all actives have a fitted effect of over 60% in size
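Concentration-response testing used A549 ARE_Fluc cells at 5000 cells/well. Following an 18-24 h compound incubation, viability was read by fluorescence (Ex 405/Em 525) and luciferase output by luminescence.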
ClpP mod = qHTS Assay for Activators of ClpP; 340,000 compounds, 1.9% hits; Potency, µM (top dose mostly 57.5 µM); ATP-dependent Clp protease proteolytic subunit (Bacillus subtilis (strain 168)), P80244; purified B. subtilis ClpP, FRET peptide cleavage, 20 min; AID 651965, 2013; active means well fitted falling curve with a large enough effect; inconclusive means small, poorly fitted or top-dose-only effect; inactive means no such curve, though single readings can be large or run the other way; further: the source files actives as falling curves though it sought activators and does not explain the sign; nearly all actives have a fitted effect of over 65% in size
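Purified B. subtilis ClpP, 10 microg/mL final in Tris/HCl pH8 with KCl, BSA, glycerol and Tween-20, cleaved an Abz/nitrotyrosine-quenched decapeptide. Fluorescence (ex 320, em 430) was read at 0 and 20 min at room temperature. Delta was normalized to 5.8 microM ADEP and DMSO/no-enzyme controls.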
Nrf2 ARE act = activators of Nrf2 (ARE) signaling; AREc32 ARE-luciferase reporter (MCF7-derived line), luminescence, 24 h; Potency, µM (doses to about 46.1 µM), most hits filed as activators; 410,000 compounds, 0.31% hits; further: nearly all actives have a fitted effect of over 65% in size
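ARE activation measured as luciferase luminescence (Steady-Glo, 30 min RT) in AREc32_Fluc cells after 24 hr compound exposure at 37 deg C, 5% CO2; cells seeded overnight at 1000/well in OPTI-MEM, 5% FBS.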
A549 viability = counter-screen for Nrf2 inhibitors: cytotoxicity in A549 cells. A549 ARE-Fluc cells, CellTiter-Fluor viability, 18-24 h. Potency, µM (titrated, usually from 46 µM), usual class: inhibitors. 390,000 compounds, 0.16% hits
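A549 ARE_Fluc cells in 5% FBS OPTI-MEM were exposed to compounds in concentration-response for 18-24 h at 37 deg C. Viability was read by CellTiter-Fluor fluorescence (Ex 405/Em 525) after 30 min, before the luciferase read.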
p53 reactivation = mutant p53 re-activation in reporter cells. 320,000 compounds, 0.063% hits. Potency, µM (series often up to 92.2 µM), most hits filed as activators. H1299 p53-A138V BP100-luciferase reporter, luminescence, 24 h; further: nearly all actives have a fitted effect of over 45% in size
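H1299 (p53-null), stable ts p53-A138V + BP100-Luc; 1000 cells/well, Opti-MEM/10% FBS; cpd 4 pt, 1:5; 24 h, 37 deg C, 5% CO2; detection reagent 10 min RT; luminescence.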
Hits are given with their value; 0 = inactive; ? = inconclusive; - = no result given; [ ] = remark or other dose. Unless noted, the call rests on the fitted dose curve; in most records, active means well fitted curve in the direction sought with a large enough effect; inconclusive means small, poorly fitted or top-dose-only effect, or another doubt; inactive means no such curve, though single readings can be large; an effect the other way counts as inactive or inconclusive.

SMILES	miR-21 FLuc	Nrf2 inh	ClpP mod	Nrf2 ARE act	A549 viability	p53 reactivation
CSc1ncc(Cl)c(C(=O)Nc2ccc(NC(C)=O)cc2)n1	0	0	0	0	0	0
CSc1ncc(Cl)c(C(=O)Nc2cccnc2)n1	0	0	0	11.2µM	0	0
CCN(c1ccccc1)S(=O)(=O)c1ccc2[nH]cc(C(=O)NCc3ccc(C)cc3)c(=O)c2c1	0	-	0	0	0	-
COc1ccc2[nH]c(=O)c(CN(Cc3cccs3)S(=O)(=O)c3c(C)ccc4nsnc34)cc2c1	0	9.2µM	0	0	-	0
Cc1ccc2[nH]c(=O)c(CN(Cc3ccco3)S(=O)(=O)c3c(C)ccc4nsnc34)cc2c1	0	?	0	0	0	0
CCc1nn(CC(=O)NC(C)CC)c(=O)c2cc3c(OC)cccc3n12 (stereo not given)	0	0	?	0	0	-
COc1cccc(-c2nnc3sc(C4CCCCC4)nn23)c1	0	?	0	0	0	0
COc1cc(-c2nnc3sc(C4CCCCC4)nn23)cc(OC)c1OC	0	13µM	0	0	0	0
CC(C)C(=O)Nc1cccc(COc2ccc(CN(Cc3ccccc3)C(=O)OC(C)(C)C)cc2)c1	-	16.4µM	0	0	0	-
COc1ccc(-c2onc(C)c2C)cc1S(=O)(=O)N(C)Cc1ccccc1	0	18.4µM	0	0	0	-
COc1ccc(-c2onc(C)c2C)cc1S(=O)(=O)NC1CCC(C)CC1 (stereo not given)	0	20.6µM	0	0	0	-
CCN(c1cccc(C)c1)c1ncnc2c1cnn2-c1cccc(Cl)c1	0	-	0	0	0	-
CCOC(=O)c1sc(C)c2c1NC(c1ccc(Cl)cc1)NC2=O (stereo not given)	0	-	0	0	0	0
CCOC(=O)c1sc(C)c2c1NC(C)(c1ccccc1)NC2=O (stereo not given)	0	0	31.6µM	0	0	0
COc1cc(CC(=O)Nc2c(-c3ccccc3)[nH][nH]c2=O)cc(OC)c1	-	-	0	-	-	-
Cc1ccc(-c2cc(C(F)(F)F)c(C#N)c(SCCC#N)n2)o1	0	0	4.47µM	7.08µM	0	0
C#CCSc1nc(-c2ccccc2)cc(C(F)(F)F)c1C#N	0	0	0	8.91µM	0	0
COc1ccc(-c2cc(C(F)(F)F)c(C#N)c(SCC(=O)O)n2)cc1	0	0	-	0	0	0
C#CCSc1nc(-c2ccccc2)cc(-c2ccccc2)c1C#N	0	0	?	0	0	-
N#Cc1c(C(F)(F)F)cc(-c2cccs2)nc1SCc1cccnc1	0	13µM	8.91µM	0	?	0
N#Cc1c(C(F)(F)F)cc(-c2cccs2)nc1SCc1ccc(F)cc1	0	0	0	0	0	-
Cc1ccc(C(C(=O)NC(C)(C)C)N(Cc2ccco2)C(=O)Cn2nnc(-c3cccs3)n2)cc1 (stereo not given)	0	0	25.1µM	0	0	0
Cc1ccc(S(=O)(=O)N2CCC[C@H]2C(=O)OCc2nc3ccccc3s2)cc1	-	0	-	0	0	-
Oc1ccc(C[C@H]2CN([C@@H](Cc3ccccc3)CN3CCCC3CN3C(=S)NC[C@@H]3Cc3ccccc3)C(=S)N2CC2CCCCC2)cc1 (stereo not given in full)	-	-	0	0	-	-
Oc1ccc(C[C@H]2CNC(=S)N2CC2CCCN2C[C@H](Cc2ccc(O)cc2)N2C[C@H](Cc3ccccc3)N(CCc3ccccc3)C2=S)cc1 (stereo not given in full)	-	20.6µM	0	0	0	-
SMILES	miR-21 FLuc	Nrf2 inh	ClpP mod	Nrf2 ARE act	A549 viability	p53 reactivation
CC(C)C[C@H]1CNC(=S)N1C[C@H]1CCCN1C[C@H](Cc1ccc(O)cc1)N1C[C@H](Cc2ccccc2)N(CCc2ccccc2)C1=S	-	-	0	0	-	-
Oc1ccc(C[C@H]2CNC(=S)N2CC2CCCN2C[C@H](Cc2ccc(O)cc2)N2C[C@H](Cc3ccc(O)cc3)N(CC3CCCCC3)C2=S)cc1 (stereo not given in full)	-	13µM	0	0	?	-
COCCCNC(=O)/C=C1\Sc2ccccc2N(Cc2ccccc2F)C1=O	0	0	0	11.2µM	0	0
Cc1ccc(C)c(NC(=O)c2cc(S(=O)(=O)NCCC3=CCCCC3)ccc2F)c1	0	-	0	0	0	-
Cc1ccc(NC(=O)c2cc(S(=O)(=O)NCCC3=CCCCC3)ccc2F)cc1	0	14.6µM	0	0	?	0
COc1ccc(CCNc2ncnc3nc[nH]c23)cc1	-	14.6µM	0	-	0	-
Cc1cc(=O)n(CC(=O)NCCC(C)C)c2c1c(C)nn2C	0	0	0	0	0	-
COc1ccc(NC(=O)Cn2c(SCc3ccc(C)cc3)nc3cccnc32)cc1OC	0	?	0	0	0	-
O=C(Cn1c(SCc2ccc(F)cc2)nc2cccnc21)Nc1ccccc1F	0	?	0	0	0	-
CCCC(=O)Nc1ccc(C(=O)N/N=C/c2ccc([N+](=O)[O-])o2)cc1	?	0	31.6µM	0	0	0
CCCCCCCCC(=O)N/N=C/c1cccc(Br)c1	0	20.6µM	0	0	0	0
COC(=O)N/N=C/c1cccc([N+](=O)[O-])c1	0	0	-	0	0	0
CCOC1(c2ccccc2)CC1C(=O)N/N=C/c1cccc([N+](=O)[O-])c1 (stereo not given)	0	18.4µM	0	0	0	0
CCCCCCC(=O)N/N=C/c1ccc(Br)cc1	0	0	0	0	0	0
CCCCCCCC(=O)Nc1ccc(C(=O)N/N=C/c2cccc([N+](=O)[O-])c2)cc1	0	0	28.2µM	0	0	0
Cc1cc(C)cc(NC(=O)C(=O)NCC(c2cccnc2)N2CCc3ccccc32)c1 (stereo not given)	0	0	0	0	0	-
Cc1cccc(C)c1NC(=S)Nc1ccccc1C(=O)NCc1ccco1	0	?	25.1µM	0	?	0
O=C(CN(c1ccccc1)S(=O)(=O)c1ccccc1)Nc1ccccc1C(=O)NCc1ccco1	0	0	?	0[9.22 µM]	0	0
Cc1ccc(C)c(N(CC(=O)Nc2ccccc2C(=O)NCc2ccco2)S(=O)(=O)c2ccccc2)c1	0	0	35.5µM	0	0	0
O=C(NCc1ccco1)c1ccccc1NS(=O)(=O)c1ccc2c(c1)OCCO2	0	-	31.6µM	0	0	-
Cc1ccc(S(=O)(=O)N(Cc2ccccc2)c2ccccc2C(=O)Nc2ccccc2C(=O)NCc2ccco2)cc1	0	0	?	0	0	0
Cc1ccc(N(CC(=O)Nc2ccccc2C(=O)NCc2ccco2)S(=O)(=O)c2ccccc2)cc1C	0	0	22.4µM	0	0	0
